Test results as given in patent publication US12329158B2, “Large-scale methods of uniformly coating packaging surfaces with a volatile antimicrobial to preserve food freshness” (AGROFRESH INC., priority 2013, dated 2025).
Converted amounts (≈) assume the structure as drawn.

Legend:
Format in all cases: cell-based
Botrytis cinerea [1] = assay: In vitro volatile assay (Example 24); conditions: 72 h, read-out: Volatile MIC (mg/L) B. cinerea
Description: (§1) Volatile assay: 12-well (6.5 mL volume per well) microtiter plates are used. A 3-mL volume of half strength PDA is added to each well. […] A Whatman #1 filter disk (Cat. No. 1001-0155) is placed, in duplicate, on the underside of a polyethylene PCR plate sealing film. […] The acetone is permitted to evaporate for 5 minutes. The headspace around the inoculum is then sealed inside the well by the film with the adhering disk containing the fungicide. Plates are inverted, placed over the treated disks, and sealed to prevent any of the chemical from flaking from the disk and falling onto the inoculated agar. […] Contact assay: 6-well (16.5 mL volume per well) microtiter plates are used for an in vitro inhibition assay. […] A 7.5-mL volume of the amended media is added to each well of the microtiter plate. […] The plates are sealed with a clear film and incubated for 3 days at 23° C. After incubation, plates are evaluate for percent growth relative to acetone only control.

Penicillium expansum [2] = assay: In vitro volatile assay (Example 24); conditions: 72 h, read-out: Volatile MIC (mg/L) P. expansum
Description: as §1

Botrytis cinerea [3] = assay: Volatile MIC assay (Example 11)
Alternaria alternata = assay: Volatile MIC assay (Example 11)
Fusarium sambucinum = assay: Volatile MIC assay (Example 11)
Monilinia fructicola = assay: Volatile MIC assay (Example 9); conditions: 72 h, read-out: MIC (mg/L) MONIFC
Description: (§2) A 3-mL volume of full-strength Potato Dextrose Agar (PDA) is added to each well. […] Plates are inoculated immediately prior to volatile fungicide treatment. A Whatman #1 filter disk (Cat. No. 1001-0155) is placed, in duplicate, on the underside of a polyethylene PCR plate sealing film. […] The acetone is permitted to evaporate for 5 minutes. The headspace around the inoculum is then sealed inside the well by the film with the adhering disk containing the fungicide by inverting the plates over the treated disks and sealing to prevent any of the chemical from flaking from the disk and falling onto the inoculated agar.

Glomerella cingulata [4] = assay: Volatile MIC assay (Example 9); conditions: Colletotrichum gloeosporioides, 72 h, read-out: MIC (mg/L) GLOMCI
Description: as §2

Botrytis cinerea [5] = assay: Volatile MIC assay (Example 9); conditions: 72 h, read-out: MIC (mg/L) BOTRCI
Description: as §2

Penicillium expansum [6] = assay: Volatile MIC assay (Example 9); conditions: 72 h, read-out: MIC (mg/L) PENIEX
Description: as §2

Colletotrichum acutatum = assay: Volatile MIC assay (Example 11)
Geotrichum candidum = assay: Volatile MIC assay (Example 11)
Diplodia gossypina = assay: Volatile MIC assay (Example 11); conditions: Lasiodiplodia theobromae
Aspergillus brasiliensis = assay: Volatile MIC assay (Example 11)
M. piriformis = assay: Volatile MIC assay (Example 11); conditions: Mucor piriformis
Penicillium expansum [7] = assay: Volatile MIC assay (Example 11)
Penicillium digitatum = assay: Volatile MIC assay (Example 11)
Aspergillus niger = assay: Volatile MIC assay (Example 11)
Glomerella cingulata [8] = assay: Volatile MIC assay (Example 11); conditions: Colletotrichum gloeosporioides
Monilinia fruticola = assay: Volatile MIC assay (Example 11)
B. cinerea = assay: In vitro contact assay, amended agar (Example 24); conditions: Botrytis cinerea, 72 h, read-out: Contact MIC (mg/L) B. cinerea
Description: (§3) Contact assay: 6-well (16.5 mL volume per well) microtiter plates are used for an in vitro inhibition assay. […] A 7.5-mL volume of the amended media is added to each well of the microtiter plate. […] The plates are sealed with a clear film and incubated for 3 days at 23° C. After incubation, plates are evaluate for percent growth relative to acetone only control.

P. expansum = assay: In vitro contact assay, amended agar (Example 24); conditions: Penicillium expansum, 72 h, read-out: Contact MIC (mg/L) P. expansum
Description: as §3

With `OB1OCc2ccccc21` [Compound B2, 2-(hydroxymethyl)phenylboronic acid cyclic monoester] the MIC (Botrytis cinerea [1]) was 4.5 mg/L (≈ 33.6 µM), the MIC (Penicillium expansum [2]) was 17.9 mg/L (≈ 134 µM) and the MIC (Botrytis cinerea [3]) was 4.5 µg/mL (≈ 33.6 µM). The MIC (Alternaria alternata) was 2.2 µg/mL (≈ 16.4 µM), the MIC (Fusarium sambucinum) was 4.5 µg/mL (≈ 33.6 µM) and the MIC (Monilinia fructicola) was 2.2 mg/L (≈ 16.4 µM). The MIC (Glomerella cingulata [4]) was 35.7 mg/L (≈ 267 µM), the MIC (Botrytis cinerea [5]) was 4.5 mg/L (≈ 33.6 µM) and the MIC (Penicillium expansum [6]) was 17.9 mg/L (≈ 134 µM). It also gave an MIC (Colletotrichum acutatum) of 8.9 µg/mL (≈ 66.4 µM), an MIC (Geotrichum candidum) of 8.9 µg/mL (≈ 66.4 µM) and an MIC (Diplodia gossypina) of 4.5 µg/mL (≈ 33.6 µM). The MIC (Aspergillus brasiliensis) was 0.6 µg/mL (≈ 4.48 µM), the MIC (M. piriformis) was 2.2 µg/mL (≈ 16.4 µM) and the MIC (Penicillium expansum [7]) was 8.9 µg/mL (≈ 66.4 µM). For the same compound, the MIC (Penicillium digitatum) was 4.5 µg/mL (≈ 33.6 µM), the MIC (Aspergillus niger) was 1.1 µg/mL (≈ 8.21 µM) and the MIC (Glomerella cingulata [8]) was 35.7 µg/mL (≈ 267 µM). The MIC (Monilinia fruticola) was 1.1 µg/mL (≈ 8.21 µM), the MIC (B. cinerea) was 10 mg/L (≈ 74.7 µM) and the MIC (P. expansum) was 2 mg/L (≈ 14.9 µM).
